## scFv variants of Ab-91 (heavy chain) against a SARS-CoV-2 spike peptide

Reference: Engelhart et al. 2022, doi:10.1038/s41597-022-01779-4. File: FLAb, binding data.

Binding partner: SARS-CoV-2 spike HR2 peptide, sequence PDVDLGDISGINAS.

The variants keep the light chain, the linker and the frameworks of Ab-91 (scFv order VL, the linker GGGGSGGGGSGGGGS, VH).
VL: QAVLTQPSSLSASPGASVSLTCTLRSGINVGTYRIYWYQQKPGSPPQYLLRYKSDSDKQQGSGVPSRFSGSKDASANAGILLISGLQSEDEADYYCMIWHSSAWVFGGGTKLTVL
VH: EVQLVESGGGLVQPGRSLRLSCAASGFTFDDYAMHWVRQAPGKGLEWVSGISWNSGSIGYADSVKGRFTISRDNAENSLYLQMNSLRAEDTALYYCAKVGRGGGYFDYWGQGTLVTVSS

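The parent was found by panning a naive human phage display library on the peptide. Variants in AAYL51 differ from the parent at up to three CDR positions; double and triple changes were sampled at random. The assay is AlphaSeq: two haploid yeast populations carry antibody and antigen on their surface. Pairs that bind mate more often; barcode pairs of the diploids are counted by sequencing. Each replicate has its own calibration line, from reference interactions of the BCL2 family. The assay was run in three technical replicates.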

Changes read parent residue, position, new residue, counted from the first residue of the VH shown. The read-out is the apparent dissociation constant on a log10 scale (nM): the lower, the stronger. An entry "n.d." has no value in the source: the pair was not observed among the diploids in that replicate. This suggests poor binding but is not conclusive. Empty control strains, which show no peptide, gave a signal in 21% of pairings with library AAYL51; the median was 4.54 and 95% of these signals were weaker than 3.26. No background was subtracted. The control count says in how many pairings with the empty strains this scFv gave a signal, with their mean in brackets.

changes	log10 Kd (nM) by replicate	signal with controls
I58H/S63E/G104V	n.d. n.d. n.d.	1/9 (3.28)
H35D/W53L/Y108E	n.d. n.d. n.d.	2/9 (4.32)
F29R/Y32A	n.d. 4.95 n.d.	1/9 (4.79)
G26H/S55F/Y108C	4.79 4.44 n.d.	2/9 (4.35)
N54P/D62H/V64M	n.d. n.d. n.d.	2/9 (3.42)
D30S/S52K/D107A	4.06 5.69 5.42	6/9 (4.57)
I51L/W53D/N54Y	4.28 n.d. n.d.	1/9 (4.33)
V99A/R101V/Y105F	n.d. n.d. n.d.	0/9
A33P/K65V/F106A	n.d. 4.04 n.d.	2/9 (4.83)
D31I/M34K/V64L	n.d. n.d. n.d.	0/9
H35M/W53K/G103Y	5.83 n.d. n.d.	2/9 (4.52)
A33E/S63P	n.d. n.d. n.d.	1/9 (4.07)
Y60L/S63D/K65E	3.21 3.16 3.22	2/9 (4.43)
T28V/Y32P/G59S	n.d. n.d. n.d.	0/9
F29W/V64C/G102L	5.03 n.d. 3.86	5/9 (4.75)
D31Y/Y32E/W53A	3.05 3.22 n.d.	5/9 (4.62)
S55M/Y60C/S63H	n.d. n.d. n.d.	1/9 (3.49)
A33C/G50W/S63F	n.d. n.d. n.d.	0/9
F27V/M34G/R101C	4.38 n.d. n.d.	5/9 (4.62)
R101G/Y105C/D107H	n.d. n.d. n.d.	0/9
D31A/D62F	n.d. n.d. n.d.	0/9
D31I/A61C	n.d. n.d. n.d.	1/9 (3.43)
A33P/H35Y/F106T	3.29 5.73 n.d.	1/9 (3.08)
I51S/I58G/G102D	4.62 4.51 5.40	7/9 (4.02)
A61E/G102N/G104N	n.d. n.d. n.d.	0/9
G26L/S55F/G100N	n.d. n.d. n.d.	1/9 (6.09)
G26T/I51Q/S55P	4.97 4.04 n.d.	2/9 (4.16)
G26R/S63Y	3.96 n.d. n.d.	1/9 (4.12)
D31H/W53R/G56T	5.35 4.82 4.65	4/9 (4.50)
I51F/S63K/K65D	5.81 n.d. n.d.	2/9 (4.49)
G50H/N54Y/D107K	5.98 n.d. 3.92	1/9 (3.51)
F29H/V64F/D107L	n.d. n.d. 4.22	2/9 (3.49)
F27G/S55K/G100N	n.d. n.d. n.d.	1/9 (5.40)
D30K/G103C/Y105A	2.68 2.71 2.63	7/9 (5.64)
S57L/Y60P/G100R	n.d. n.d. 3.93	0/9
N54Q/I58P	3.61 6.20 4.52	4/9 (4.44)
H35Y/I58S/V64E	n.d. n.d. n.d.	0/9
Y32E/M34T/H35P	n.d. n.d. n.d.	0/9
F27L/D30T/W53L	5.18 5.30 n.d.	5/9 (5.16)
S57W/S63M/D107E	4.73 n.d. n.d.	4/9 (4.10)
F27Y/D31V/V99S	n.d. n.d. n.d.	6/9 (5.41)
R101Q/G103M	1.31 1.42 0.84	3/9 (4.81)
S52L	3.56 n.d. n.d.	0/9
S57L/D62C/S63G	n.d. 3.04 n.d.	0/9
H35Q/N54V/Y60A	n.d. n.d. n.d.	0/9
T28L/G59N/G103N	n.d. 4.37 5.25	4/9 (4.31)
S55F/Y60M/Y105T	n.d. n.d. n.d.	0/9
F27Y/S57I/D62Q	n.d. n.d. n.d.	2/9 (4.18)
D30W/W53M/V64D	n.d. n.d. n.d.	1/9 (4.80)
A33E/G59H/G104E	4.78 4.27 n.d.	7/9 (4.76)
G26W/D30L/H35E	4.69 5.81 n.d.	4/9 (5.62)
T28F/R101D/G103S	n.d. n.d. n.d.	0/9

The 7 strongest on average among those seen in every replicate, once more:

| changes | log10 Kd (nM) by replicate | signal with controls |
|---|---|---|
| R101Q/G103M | 1.31 1.42 0.84 | 3/9 (4.81) |
| D30K/G103C/Y105A | 2.68 2.71 2.63 | 7/9 (5.64) |
| Y60L/S63D/K65E | 3.21 3.16 3.22 | 2/9 (4.43) |
| N54Q/I58P | 3.61 6.20 4.52 | 4/9 (4.44) |
| I51S/I58G/G102D | 4.62 4.51 5.40 | 7/9 (4.02) |
| D31H/W53R/G56T | 5.35 4.82 4.65 | 4/9 (4.50) |
| D30S/S52K/D107A | 4.06 5.69 5.42 | 6/9 (4.57) |